# In PubChem BioAssay AID493056 (National Center for Advancing Translational Sciences (NCATS), 2011):
# Chains of the proteins cited; added tags and fusions are not shown.
# UniProt P34981, whole entry: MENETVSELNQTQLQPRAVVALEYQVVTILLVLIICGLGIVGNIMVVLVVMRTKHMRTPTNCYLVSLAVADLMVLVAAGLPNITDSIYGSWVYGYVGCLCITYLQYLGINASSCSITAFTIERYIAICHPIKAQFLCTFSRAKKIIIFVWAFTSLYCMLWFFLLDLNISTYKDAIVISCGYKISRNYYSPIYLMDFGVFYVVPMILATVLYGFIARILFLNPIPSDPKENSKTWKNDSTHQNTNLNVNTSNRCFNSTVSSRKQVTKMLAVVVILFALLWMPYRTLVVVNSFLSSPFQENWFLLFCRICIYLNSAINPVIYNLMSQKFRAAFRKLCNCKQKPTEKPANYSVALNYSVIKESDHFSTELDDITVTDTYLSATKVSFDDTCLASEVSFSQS
# Only a part is listed here, and it is no random draw. Active and inactive are the calls of the source. Rule as the data show it: active = enhancement above about 30%; inactive = the rest.
# Biological target: Thyrotropin-releasing hormone receptor (Homo sapiens) (UniProt P34981)
# Assay: qHTS for Small Molecule Agonists and Allosteric Enhancers of Human TRH Receptor: Primary Screen for Enhancers; also: 0% is about no effect
# Conditions: TRHR cells, fluo-8 calcium fluorescence, EC20 TRH enhancement; at 2 µM; hits give high values
# Description: NIH Chemical Genomics Center [NCGC] NIH Molecular Libraries Probe Centers Network [MLPCN] MLPCN Grant: MH089816-01 Assay Submitter (PI): Marvin Gershengorn This project aims to identify small drug-like molecules that activate (agonists) the thyrotropin releasing hormone (TRH) receptor (TRHR) or enhance its TRH-stimulated activity (allosteric enhancers). TRHR, a drug-accessible cell surface receptor expressed in specific brain regions, and its ligand TRH have been implicated in several central nervous system disorders, including depression and anxiety. Small molecule TRHR agonists or allosteric enhancers that are metabolically stable and able to cross the blood-brain barrier might serve as probes to elucidate the roles of brain TRH receptors in animal models, and might be valuable as lead compounds for the development of drugs to treat patients with central nervous system disorders. Upon TRHR-Gq activation in TRHR cells, intracellular calcium is released from stores in the endoplasmic reticulum. […] This primary screen measures compound-induced enhancement of an EC20 stimulation of the receptor by its native ligand.
# For the HTS assay freshly prepared cells are plated at a density of 2000/well in 3 ul of complete DMEM medium containing 10% serum in 1536-well plates and cultured over night at 37 C in a humidified incubator with 5% CO2. The next day, 2 ul of a no wash calcium dye (ABD Bioquest) was added to the cells and plates were incubated at room temperature for 1 hour. For the assay, assay plates were loaded into the FDSS kinetic plate reader. A 10 cycle (1 second/cycle) baseline measurement is taken and then the FDSS online 1536 pintool delivers 23 nl of compound library (as well as TRH controls) to the plate. The plate is measured for kinetically at 1 cycle/sec for 180 seconds and is considered to be the agonist portion of the assay (eg, compounds which activate a positive calcium response during this portion are flagged as potential agonists). Following the 180 second read, 1 ul of either an EC20 (positive modulation assay) is delivered by an onboard pipette head. Measurements are taken kinetically for an additional 180 seconds. TRHR FDSS Screening Protocol 1. Reagent, 3 uL 2000 cells/well 1536 TC treated Black plate in media containing 10% FCS 2. Time, 18 hours, 33.5C 5% CO2 (cells grown at 37C) 3. Reagent, 2 uL ABD fluo-8 Ca dye 4. Time, 30 min-1.5hrs hours, Room temp (6 plates/batch) 5. Detector, EX 480/EM 530C, FDSS 10 cycles baseline (1sec/cycle) 6. Compound, 23 nL of stock solution from library 7. Detector, EX 480/EM 530C, FDSS 230 cycles (1sec/cycle) Agonist mode 8. Compound, 1 ul EC20 of TRH made up in HEPES HBSS, 10 nM final 9. Detector, EX 480/EM 530C, FDSS 100 cycles (1sec/cycle) Potentiator mode
row,SMILES,enhancement
1,COc1ccccc1OP(C)(=O)Nc1cccc(Br)c1 (stereo not given),inactive: -0.591%
2,CCOC(=O)c1ccc(NP(C)(=O)Oc2cc(C)cc(C)c2)cc1 (stereo not given),inactive: 3.67%
3,Cc1cc(C)cc(OP(C)(=O)Nc2ccc(C)cc2C)c1 (stereo not given),inactive: -1.66%
4,Cc1ccc(C)c(NP(C)(=O)Oc2ccccc2)c1 (stereo not given),inactive: 8.45%
5,Cc1cc(C)cc(OP(C)(=O)Nc2ccccn2)c1 (stereo not given),inactive: 2.96%
6,CP(=O)(Nc1cccc(Br)c1)Oc1ccccc1 (stereo not given),inactive: 1.62%
7,CC1=NCCc2c1[nH]c1ccccc21.O=[N+]([O-])c1cc([N+](=O)[O-])c(O)c([N+](=O)[O-])c1,inactive: 1.81%
8,CC1=C2N=C(C=C3N=C(C(C)=C4[N-][C@@](C)([C@@H]5N=C1[C@](C)(CCC(=O)NC[C@@H](C)OP(=O)([O-])O[C@H]1[C@@H](O)[C@@H](n6cnc7cc(C)c(C)cc76)O[C@@H]1CO)[C@H]5CC(N)=O)[C@@](C)(CC(N)=O)[C@@H]4CCC(N)=O)[C@@](C)(CC(N)=O)[C@@H]3CCC(N)=O)C(C)(C)[C@@H]2CCC(N)=O.[C-]#N.[Co+3],inactive: -0.0615%
9,O=[N+]([O-])c1cc([N+](=O)[O-])c(Nc2nnnn2CCO)c([N+](=O)[O-])c1,inactive: 3.04%
10,COc1ccccc1OP(C)(=O)Nc1c(C)cccc1C (stereo not given),inactive: -8.75%
11,CN1CCCCC1COC(=O)C1(O)c2ccccc2CCc2ccccc21 (stereo not given),inactive: 11.4%
12,CCCOc1ccc(NP(C)(=O)Oc2ccc(Cl)cc2)cc1 (stereo not given),inactive: -1.29%
13,CP(=O)(Nc1ccc(SC(F)(F)F)cc1)Oc1ccccc1 (stereo not given),inactive: 3%
14,O=[N+]([O-])c1cc([N+](=O)[O-])c(-n2nnc3ccccc32)c([N+](=O)[O-])c1,inactive: -1.55%
15,Cc1nc2ccc3ccccc3c2s1.O=[N+]([O-])c1cc([N+](=O)[O-])c(O)c([N+](=O)[O-])c1,inactive: 2.66%
16,Cc1cccc(C)c1OP(C)(=O)Nc1ccc(SC(F)(F)F)cc1 (stereo not given),inactive: -7.65%
17,CP(=O)(Nc1ccc(SC(F)(F)F)cc1)Oc1ccc(Cl)cc1 (stereo not given),inactive: 1.76%
18,CP(=O)(Oc1ccccc1)OC(c1ccccc1)C(F)(F)F (stereo not given),inactive: 1.35%
19,CP(=O)(NC(=O)Nc1ccccc1)Oc1ccccc1 (stereo not given),inactive: -4.51%
20,CCc1ccc(OP(C)(=O)N2CCN(c3ccc([N+](=O)[O-])cc3)CC2)cc1 (stereo not given),inactive: 3.47%

row,SMILES,enhancement
1,Cc1cc(C)cc(OP(C)(=O)Nc2ccc(SC(F)(F)F)cc2)c1 (stereo not given),inactive: 18.1%
2,CCOC(=O)c1ccc(NP(C)(=O)Oc2ccc(OC)cc2)cc1 (stereo not given),inactive: -0.314%
3,CCOP(C)(=S)SCC(=O)NC(C)C(=O)O (stereo not given),inactive: 4.24%
4,CP(=O)(Nc1ccccn1)Oc1ccc(Cl)cc1 (stereo not given),inactive: 5.1%
5,CP(=S)(Nn1cnnc1)Oc1ccccc1 (stereo not given),inactive: -2.93%
6,CP(=O)(Nc1ccccc1Br)Oc1ccccc1 (stereo not given),inactive: -1.13%
7,COc1ccccc1OP(C)(=O)Nc1ccccc1 (stereo not given),inactive: 1.47%
8,O=[N+]([O-])c1cc([N+](=O)[O-])c(Nc2cccnc2)c([N+](=O)[O-])c1,inactive: -4.81%
9,O=[N+]([O-])c1ccc2c(c1)C=Nc1ccccc1O2,inactive: -1.78%
10,CC(C)(C)c1ccc(OP(C)(=O)Nc2ccc(SC(F)(F)F)cc2)cc1 (stereo not given),inactive: -0.475%
11,Cc1cccc(C)c1OP(C)(N)=O (stereo not given),inactive: -3.93%
12,COc1ccccc1OP(C)(=O)Nc1ccc(C)cc1 (stereo not given),inactive: 0.866%
13,Cc1ccc(NP(C)(=O)Oc2ccccc2)c(C)c1 (stereo not given),inactive: 1.71%
14,CCOC(=O)c1ccc(NP(C)(=O)Oc2ccccc2)cc1 (stereo not given),inactive: -1.87%
15,Cc1cc(C)cc(OP(C)(N)=O)c1 (stereo not given),inactive: 1.23%
16,COc1ccccc1OP(C)(=O)Nc1cc(Cl)ccc1C (stereo not given),inactive: 0.283%
17,COc1ccc(OP(C)(=O)Nc2cccc(F)c2)cc1 (stereo not given),inactive: 2.12%
18,CCN(CC)CCCOC(=O)C(O)(c1ccccc1)c1ccccc1,inactive: -4.01%
19,COc1ccccc1OP(C)(=O)Nc1ccc(Br)cc1 (stereo not given),inactive: -2.63%
20,COc1ccc(OP(C)(=O)Nc2ccccn2)cc1 (stereo not given),inactive: 2.92%
